{
  "source": "ChEMBL document CHEMBL3751750",
  "about": "“2-Amino-4-bis(aryloxybenzyl)aminobutanoic acids: A novel scaffold for inhibition of ASCT2-mediated glutamine transport” (Bioorg Med Chem Lett, 2016)",
  "key": {"[1]": {"target": "T1, Amino acid transporter (Rattus norvegicus, UniProt Q9Z1J7)", "T1 sequence (Q9Z1J7 whole entry)": "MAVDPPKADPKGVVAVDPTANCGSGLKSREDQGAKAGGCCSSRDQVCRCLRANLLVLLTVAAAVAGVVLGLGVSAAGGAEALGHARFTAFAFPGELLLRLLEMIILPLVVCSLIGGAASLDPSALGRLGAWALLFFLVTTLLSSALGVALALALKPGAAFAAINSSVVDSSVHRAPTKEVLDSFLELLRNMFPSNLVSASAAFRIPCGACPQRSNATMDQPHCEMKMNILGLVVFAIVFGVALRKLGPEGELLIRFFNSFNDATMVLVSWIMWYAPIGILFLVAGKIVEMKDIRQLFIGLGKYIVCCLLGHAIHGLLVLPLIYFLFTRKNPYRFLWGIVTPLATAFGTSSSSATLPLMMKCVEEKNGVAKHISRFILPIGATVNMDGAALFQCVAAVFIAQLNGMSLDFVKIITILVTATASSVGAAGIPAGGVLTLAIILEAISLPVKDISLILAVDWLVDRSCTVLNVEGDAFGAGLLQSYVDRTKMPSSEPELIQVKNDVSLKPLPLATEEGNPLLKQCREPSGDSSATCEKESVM", "assay": "Inhibition of ASCT2-mediated glutamine transport in rat C6 cells using [3H]-glutamine after 15 mins by scintillation counting", "type": "cell-based"}, "[2]": {"target": "T2, Neutral amino acid transporter B(0) (Homo sapiens, UniProt Q15758)", "T2 sequence (Q15758 whole entry)": "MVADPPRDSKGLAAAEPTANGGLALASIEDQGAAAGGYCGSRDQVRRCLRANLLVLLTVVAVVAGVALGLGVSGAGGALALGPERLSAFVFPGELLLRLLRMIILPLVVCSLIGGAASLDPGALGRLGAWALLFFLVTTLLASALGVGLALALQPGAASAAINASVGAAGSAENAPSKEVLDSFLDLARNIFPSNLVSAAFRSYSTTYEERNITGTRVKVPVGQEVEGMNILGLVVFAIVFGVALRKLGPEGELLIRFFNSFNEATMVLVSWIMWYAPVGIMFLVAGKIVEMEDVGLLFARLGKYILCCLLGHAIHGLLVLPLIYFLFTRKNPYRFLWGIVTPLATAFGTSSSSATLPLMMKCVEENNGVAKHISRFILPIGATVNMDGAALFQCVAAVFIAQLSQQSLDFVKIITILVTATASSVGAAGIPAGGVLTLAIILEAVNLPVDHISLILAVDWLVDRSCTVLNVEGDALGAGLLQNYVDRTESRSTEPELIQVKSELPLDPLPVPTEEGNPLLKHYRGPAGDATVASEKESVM", "assay": "Inhibition of ASCT2-mediated glutamine transport in human HEK293 cells using [3H]-glutamine after 15 mins by scintillation counting", "type": "cell-based"}},
  "data": [
    {"smiles": "N[C@@H](CCN(Cc1ccccc1OCc1cccc(C(F)(F)F)c1)Cc1ccccc1OCc1cccc(C(F)(F)F)c1)C(=O)O", "values": [
      {"measurement": "IC50", "setting": "[1]", "result": 22.5, "unit": "µM"},
      {"measurement": "IC50", "setting": "[2]", "result": 17.6, "unit": "µM"}
    ]}
  ]
}
